The source made the active and inactive calls.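 The calls were made as follows: active = tumour findings in long-term animal cancer tests in more than one sex, species or organ; inactive = no tumour finding and more than one negative test.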
experiment: DSSTox (CPDBAS) Carcinogenic Potency Database Summary MultiCellCall Results; conditions: animal carcinogenicity bioassays, multi-cell call summary
From the text: The Carcinogenic Potency Database (CPDB) is a unique and widely used international resource of the results of over 6500 chronic, long-term animal cancer tests on over 1500 chemical substances. The CPDB provides easy access to the bioassay literature, with qualitative and quantitative analyses of both positive and negative experiments that have been published over the past 50 years in the general literature and by the National Cancer Institute/National Toxicology Program. The CPDB standardizes the diverse literature of cancer bioassays that vary widely in protocol, histopathological examination and nomenclature, and in the published author's choices of what information to provide in their papers. Results are reported in the CPDB for tests in rats, mice, hamsters, dogs, and nonhuman primates, and are based on the most positive result among all experiments for each sex-species. The DSSTox CPDBAS (all species) file incorporates data from the CPDB Summary Tables for the full list of over 1500 chemical substances tested in at least one species. A summary MultiCellCall, based on experimental bioassay results of one or more species, is provided in the DSSTox CPDBAS file (see Source URL) for more than 1150 chemical substances.
Associated TD50 values and tumor site details for the relevant species/sex experiment supporting the overall CPDBAS MultiSiteCall are provided in the full DSSTox CPDBAS file (see Comment) and the corresponding CPDBAS Species Bioassay in PubChem. ActivityScore is computed as follows: multispecies=50, multisex=30, multisite=20, with combination scores computed as sums of these values, e.g. multispecies+multisite=70.

Row | SMILES | outcome
1 | ClCl | inactive; multisex inactive; multispecies inactive
2 | O=[N+]([O-])OCC(CO[N+](=O)[O-])(CO[N+](=O)[O-])CO[N+](=O)[O-] | inactive; multisex inactive; multispecies inactive
3 | CN(C)[N+](=O)[O-] | active; multisite active; multisex active
4 | O=[N+]([O-])c1cc([N+](=O)[O-])cc([N+](=O)[O-])c1 | inactive; multisex inactive
5 | CN[N+](=O)[O-] | active; multisex active
